## Binding of CDR-mutated scFvs to a peptide of the spike HR2 region

Target peptide (SARS-CoV-2 spike, HR2 region): PDVDLGDISGINAS

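Variants in AAYL49 differ from the parent at up to three CDR positions; double and triple changes were sampled at random. AlphaSeq pools MATa yeast showing the antibodies with MATalpha yeast showing the peptide. Pairs that bind mate more often; barcode pairs of the diploids are counted by sequencing. The ratio of observed to expected reads was calibrated, replicate by replicate, on BCL2-family standards whose Kd was known from biolayer interferometry. Mating was done three times.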

Ab-14 is the parent antibody, in scFv form: VH, then a 15-residue (Gly4Ser)3 linker, then VL. The light chain is unchanged in all variants.
VH: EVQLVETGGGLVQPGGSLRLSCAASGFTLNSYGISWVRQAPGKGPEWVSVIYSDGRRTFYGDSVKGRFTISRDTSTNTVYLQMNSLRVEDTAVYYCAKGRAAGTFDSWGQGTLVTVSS
VL: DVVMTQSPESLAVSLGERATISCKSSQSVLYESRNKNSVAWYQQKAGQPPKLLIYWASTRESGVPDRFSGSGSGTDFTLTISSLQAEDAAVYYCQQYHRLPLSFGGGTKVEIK

Changes read parent residue, position, new residue, counted from the first residue of the VH shown. Scale: log10 of Kd in nM, estimated from mating counts; low values are strong binders. "n.d." means that the variant was in the library but no mating with the target was seen in that replicate; the authors take this as a sign of poor binding, and no number exists. Nonspecific signal, from three strains lacking the peptide, appeared in 15% of pairings of library AAYL49, centred on 4.06 (5% of these signals below 2.83); values are not corrected for it. Also given: how often the same scFv was detected with the empty control strains, with their mean in brackets. In this assay the parent's reference entry averaged 0.65; its copy inside this library read 4.11 (one replicate of three).

changes	replicates, log10 nM	signal with controls
I34G+S35E+Y60K	n.d. 4.60 3.55	0 of 9
Y32L+S63R+G103P	n.d. n.d. n.d.	1 of 9 (4.72)
G26R+G55W+A102D	n.d. n.d. n.d.	4 of 9 (4.12)
T28E+R57A	2.92 n.d. n.d.	0 of 9
G61A+K65T+A101G	n.d. n.d. n.d.	0 of 9
G33K+R56T+T58H	n.d. n.d. n.d.	0 of 9
T58E+V64S+T104L	n.d. 3.35 n.d.	2 of 9 (4.80)
I51F+G55S	n.d. n.d. 5.38	2 of 9 (3.05)
S53L+R56E+T104G	n.d. n.d. 4.88	2 of 9 (3.80)
T28F+G61T+F105S	n.d. n.d. n.d.	4 of 9 (4.07)
F59N+G61E+G103S	4.78 2.66 3.69	1 of 9 (3.57)
F27Q+S35D+K65D	n.d. n.d. 5.35	0 of 9
S53T+G61Q+G99A	n.d. n.d. n.d.	0 of 9
V64P+R100K	n.d. n.d. n.d.	0 of 9
G33W+Y52C+D62S	4.62 n.d. n.d.	3 of 9 (3.94)
R56G+V64A+K65G	3.50 n.d. n.d.	2 of 9 (2.83)
I34T+T104A	n.d. 3.43 n.d.	5 of 9 (4.53)
G26H+F59P+S63R	n.d. n.d. n.d.	0 of 9
L29I+S35L+K65E	n.d. n.d. n.d.	0 of 9
G33A+S63M+G103S	n.d. n.d. 4.02	1 of 9 (2.11)
S53H+F59Y+G99Q	n.d. n.d. n.d.	1 of 9 (3.68)
G26A+T28I+V50A	n.d. n.d. n.d.	0 of 9
Y32V+Y60M+D62W	n.d. 3.96 n.d.	4 of 9 (4.27)
S53D+Y60R	n.d. n.d. n.d.	1 of 9 (2.73)
F27Q+R57G+G61V	n.d. n.d. n.d.	0 of 9
S31G+R56F+G61E	1.93 1.79 2.12	0 of 9
S35A+G103P+S107D	4.34 4.75 4.66	5 of 9 (4.01)
L29I+G33W+R57S	4.70 n.d. n.d.	1 of 9 (3.47)
G33D+R56G+G61V	n.d. n.d. n.d.	0 of 9
S35D+T58K+D62W	n.d. n.d. n.d.	1 of 9 (2.79)
S35T+F59E+G103I	n.d. 4.15 n.d.	4 of 9 (3.93)

A selection of 4 entries from above:

changes	replicates, log10 nM	signal with controls
S35T+F59E+G103I	n.d. 4.15 n.d.	4 of 9 (3.93)
G26A+T28I+V50A	n.d. n.d. n.d.	0 of 9
S53D+Y60R	n.d. n.d. n.d.	1 of 9 (2.73)
G26R+G55W+A102D	n.d. n.d. n.d.	4 of 9 (4.12)

Source: Engelhart et al. 2022 (doi:10.1038/s41597-022-01779-4), MIT Lincoln Laboratory and A-Alpha Bio; data file from the FLAb repository.